## Antibody variant affinities, Ab-95 light chain, assay 2

The measurements come from Engelhart et al. 2022 (doi:10.1038/s41597-022-01779-4) through the FLAb antibody collection.

Binding partner: SARS-CoV-2 spike HR2 peptide, sequence PDVDLGDISGINAS.

The variants keep the heavy chain, the linker and the frameworks of Ab-95 (scFv order VH, a (GGGGS)3 linker, VL).
VH: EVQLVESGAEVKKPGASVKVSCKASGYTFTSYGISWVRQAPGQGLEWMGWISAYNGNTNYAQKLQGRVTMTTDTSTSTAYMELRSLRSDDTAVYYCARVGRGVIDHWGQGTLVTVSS
VL: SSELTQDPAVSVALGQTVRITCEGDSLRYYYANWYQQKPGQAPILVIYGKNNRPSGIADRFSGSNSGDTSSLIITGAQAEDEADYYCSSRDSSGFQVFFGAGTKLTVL

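The parent was found by panning a naive human phage display library on the peptide. In library AAYL52, one, two or three CDR residues were substituted; doubles and triples were drawn at random. In AlphaSeq, yeast of one mating type display the scFv and yeast of the other type display the target. Binding brings cells together so that they mate, and sequencing counts the barcode pairs among the diploids. Each replicate has its own calibration line, from reference interactions of the BCL2 family. There are three technical replicates.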

Substitutions are numbered in sequence along the VL above, starting at 1 (not Kabat).
Scale: log10 of Kd in nM, estimated from mating counts; low values are strong binders.
A mean of the replicates is given; it leaves out those without a signal.
"not detected" means that the variant was in the library but no mating with the target was seen in any replicate; the authors take this as a sign of poor binding, and no number exists.
As a blank, each scFv also met three strains without target: over library AAYL52, 28% of these pairings were detected, typically at 3.91 and seldom below 2.90. Also given: how often the same scFv was detected with the empty control strains.

changes	mean log10 Kd (nM)	seen in	empty controls
Y29F R53F F98H	not detected	0 of 3	2 of 9
D25M N52I S89C	2.79	3 of 3	1 of 9
E23I S26P S92I	2.97	3 of 3	1 of 9
S26C K50M N52V	4.14	1 of 3	1 of 9
R53E R90L F98G	3.93	3 of 3	1 of 9
R53A S93D V97G	3.36	3 of 3	2 of 9
A32N S89E Q96E	3.82	2 of 3	1 of 9
N33R S88K F98S	not detected	0 of 3	2 of 9
D25A N51L S89G	3.53	1 of 3	4 of 9
E23G Y31N N52D	0.91	3 of 3	4 of 9
Y30F S89W D91L	3.18	3 of 3	4 of 9
E23T D25E N51I	3.32	3 of 3	1 of 9
Y30K G49N F98M	2.76	3 of 3	1 of 9
S26E A32I N51W	3.85	2 of 3	2 of 9
D25C L27N D91Y	4.44	2 of 3	1 of 9
E23G L27D P54D	not detected	0 of 3	0 of 9
P54L S88V Q96P	3.62	1 of 3	3 of 9
Y30T K50I N51P	4.16	3 of 3	3 of 9
Y29V N51T Q96I	4.29	2 of 3	5 of 9
L27H A32Y N33A	3.72	1 of 3	2 of 9
D25I S89H V97M	2.68	2 of 3	0 of 9
Y29G R53T	2.01	3 of 3	2 of 9
E23I F95M	3.47	3 of 3	1 of 9
Y30N R53S S88V	2.10	3 of 3	1 of 9
S26I A32W	4.50	1 of 3	2 of 9
R28T S92I F95P	3.89	2 of 3	3 of 9
R28W S55D S93V	4.52	2 of 3	5 of 9
Y31D K50C D91G	2.24	3 of 3	3 of 9
Y29W K50E Q96I	3.29	3 of 3	0 of 9
R28A S93Y Q96V	4.03	3 of 3	3 of 9
L27Y S88I F95Q	3.91	1 of 3	2 of 9
A32K R53F F95S	3.81	1 of 3	1 of 9
Y29Q N51M S88G	3.93	3 of 3	3 of 9
E23L F98P	2.46	3 of 3	1 of 9
G24L S88L S93Q	3.25	1 of 3	1 of 9
E23F Y29H R53Y	not detected	0 of 3	0 of 9
N52D R53S S55G	4.48	3 of 3	3 of 9
Y31N S88Y Q96I	3.62	2 of 3	2 of 9
N33V S55E F95T	4.04	1 of 3	4 of 9
A32M N51K S89L	not detected	0 of 3	2 of 9
R53W R90L V97T	not detected	0 of 3	1 of 9
Y31W N51Y F95S	3.96	3 of 3	4 of 9
G49K P54S R90H	4.60	1 of 3	5 of 9
S26R Y29W S93Y	3.78	1 of 3	4 of 9
Y30N R90W V97L	0.93	3 of 3	1 of 9
Y29G S55A D91V	1.86	3 of 3	4 of 9
L27S Y29I S93P	4.09	3 of 3	3 of 9
S26G Y30Q P54W	1.89	3 of 3	4 of 9
K50H S92F V97A	2.71	3 of 3	3 of 9
E23T N33F P54S	4.08	3 of 3	2 of 9
Y31A A32M N33Y	3.34	2 of 3	1 of 9
K50Y D91H	3.27	3 of 3	2 of 9

Extract of 7 entries:

changes,mean log10 Kd (nM),seen in,empty controls
Y29W K50E Q96I,3.29,3 of 3,0 of 9
R53A S93D V97G,3.36,3 of 3,2 of 9
Y29G R53T,2.01,3 of 3,2 of 9
Y29F R53F F98H,not detected,0 of 3,2 of 9
R28A S93Y Q96V,4.03,3 of 3,3 of 9
S26C K50M N52V,4.14,1 of 3,1 of 9
E23L F98P,2.46,3 of 3,1 of 9